According to PMC8381248, “Comparison of Pinoresinol and its Diglucoside on their ADME Properties and Vasorelaxant Effects on Phenylephrine-Induced Model” (Frontiers in Pharmacology, 2021):
Values joined by “and” are separate entries in the source; they are usually repeats but may differ in a detail not shown here. Identical values can stand only once.

Key:
[1] = Pharmacokinetic study in rat plasma after intravenous and oral administration; format: in vivo, Sprague-Dawley (SD) rats
Experimental: (§1) PDG and PINL were dissolved in a solution consisting DMSO, Solutol HS 15, and normal saline (1:3:16, v/v/v) at a concentration of 1 mg/ml (used in intravenous administration groups) and 4 mg/ml (used in oral administration groups).
(§2) Eighteen male SD rats were housed in the barrier rodent facilities to acclimatize for a week in animal quarters, which had air conditioning and an automatically controlled photoperiod of 12 h of light daily. Rats had free access to standard chow diet and water until 12 h prior to the beginning of the experiment, at which time only water was accessed freely. The rats were randomly divided into six groups, with three rats in each group. Groups 1 and 2 received PDG and PINL intravenously at a dose of 5 mg/kg by tail vein bolus injection (IV, with dose volume of 5 ml/kg) for a single-dose administration. Groups 3 and 4 were given PDG and PINL at 40 mg/kg by oral gavage administration (PO, with dose volume of 5 ml/kg) for a single dose. The rats in these groups (groups 1–4) were used to determine their plasma samples for the pharmacokinetic study of the tested drugs (PDG and PINL). Groups 5 and 6 were used to determine their urine samples for the excretion study via with tail vein bolus injection (IV, with dose volume of 5 ml/kg) of PDG and PINL.
(§3) The stock standard solutions (1.0 mg/ml) of tested drugs (PDG and PINL) and IS (diclofenac sodium for PINL urine samples and tolbutamide for other samples) were prepared by dissolving the components in DMSO and vortexing. A series of calibration standard working solutions (20.0, 10.0, 2.0, 1.0, 0.2, 0.04, and 0.02 μg/ml) was prepared freshly by diluting the stock solution stepwise using ACN-water (70:30, v/v). The quality control (QC) working solutions of PDG and PINL were diluted to the concentration of 16.0, 0.8, and 0.06 μg/ml. PINL was determined in urine samples by preparing the calibration standard working solutions (20.0, 10.0, 2.0, 1.0, 0.4, 0.2, and 0.1 μg/ml) in the same manner. The IS working solutions of 200 ng/ml of tolbutamide or 50 ng/ml of diclofenac sodium were prepared by dilution of the stock standard solution with acetonitrile solution. All the solutions were stored at 4°C and brought to room temperature before use.
(§4) For plasma samples, the calibration standards were prepared by spiking 3 μL of the appropriate standard working solutions of PDG (or PINL) to 57 μL of blank rat plasma to prepare the final plasma concentration of PDG (or PINL) ranging from 1 ng/ml to 2000 ng/ml. QC samples (3, 40, 800, and 1,600 ng/ml) were prepared separately. For PDG urine samples, the calibration standards were prepared by spiking 5 μL of the appropriate standard working solutions of PDG to 95 μL blank rat urine to prepare the final urine concentration of PDG ranging from 1 ng/ml to 2000 ng/ml. QC samples (3, 40, 800, and 1,600 ng/ml) were prepared separately. For PINL urine samples, the calibration standards were prepared by spiking 5 μL of the appropriate standard working solutions of PINL to 95 μL blank rat urine to make final urine concentration of PINL ranging from 5 ng/ml to 2000 ng/ml. QC samples (15, 30, 400, and 1,600 ng/ml) were prepared separately.
Blood samples were collected via orbital venous plexus puncture into heparinized microfuge tubes at intervals of 0, 0.083, 0.25, 0.5, 1, 2, 4, 8, 10, 24, and 30 h after administration. The plasma samples were obtained by centrifuging the blood samples at 6,000 rpm for 10 min at 4°C and storing them at −20°C until further analysis. For the plasma calibration standards, QC plasma samples, and the testing plasma samples, 40 µL of the plasma samples were extracted with 120 µL of IS working solution (tolbutamide) by vortex mixing for 1 min and at 4°C centrifugation for 10 min at 13,000 rpm. The supernatant was separated and evaporated under a gentle stream of nitrogen. The residue was reconstituted with 120 µL of 30% ACN followed by vortex mixing. Then, the solutions were centrifuged at 13,000 rpm for 10 min at 4°C. […]

[2] = Plasma protein binding rate, rapid equilibrium dialysis, rat plasma; format: in vitro ADME; conditions: 10 µM, 37°C, 4 h
Experimental: (§5) The plasma protein binding rate of the samples was investigated using rapid equilibrium dialysis method ([Waters et al., 2008]; [Jiang C. et al., 2019]; [Yuan et al., 2020]). In brief, the unbound drugs (or references) were separated from plasma (human and rat) in a 96-well plate with a semipermeable membrane through which only unbound drug can permeate. The equilibrium unit was sealed and incubated at 37°C in a mixer at 100 rpm for 4 h.
(§6) The drugs (PDG and PINL) and reference (diclofenac and propranolol) stock solutions (10 mM) were prepared by dissolving them in DMSO and further diluting with acetonitrile-water (70:30, v/v), yielding their respective working solution (0.1 mM). Then, 50 ng/ml of midazolam and 50 ng/ml of tolbutamide (in acetonitrile) were used as IS.
(§7) After reaching equilibrium, the concentrations of the samples in both the plasma and the buffer compartment were determined. According to the specification, the resultant supernatant was collected, properly diluted by distilled water, vortexed for 10 min, and finally analyzed using LC-MS/MS. All the samples (PDG, PINL, diclofenac, and propranolol) for detection were prepared in duplicate. […]
(§8) The concentrations of the samples were determined by internal standard methods, in which the data were acquired and analyzed by Analyst 1.6.1 software station (AB Sciex Corporation, Boston, MA, United States). […]

[3] = Urinary excretion study after intravenous administration; format: in vivo, Sprague-Dawley (SD) rats; conditions: IV 5 mg/kg; for excretion amount in urine: rat
Experimental: as §1, §2, §3, §4
Urine samples were collected while the rats remained isolated in metabolic cages at intervals of 0, 2, 4, 8, 24, and 30 h after administration, and the volumes of the urine were measured. The urine samples were also stored at −20°C before tested by LC-MS/MS. […]

[4] = Metabolic stability in human liver microsomes
Experimental: (§9) Then, this incubation plate containing mixed solution and NADPH regeneration system was agitated on a plate shaker at 100 rpm and pre-incubated at 37°C for 5 min. Subsequently, 300 μL of precooled quenching solution was added to each well of another deep-well plate (quench plate), which was cooled on ice. The solution in the incubation plate was transferred into the well of the quench plate as the samples in 0 min before it was mixed with another 20 µL of NADPH regeneration solution in the wells.
(§10) The incubation plate was incubated at 37°C for 0, 10, 30, and 90 min. At each time point, 100 μL of the supernatant in the incubation plate was removed from each well, quenched immediately, transferred to the wells of the ice-cold quench plate, and vortexed for 5 min. Additionally, an equal volume of pre-warmed fresh regeneration solution was added to the incubation plate for compensation after every withdrawal. […] Each test was operated in duplicate. The determination conditions of LC-MS/MS are shown in Support Materials (Supplementary Table S4).
(§11) The in vitro T1/2 was determined by converting the analyte/IS peak area ratios to percentage of drug remaining using the initial peak (t = 0 min) area ratio values as 100%.

[5] = Plasma protein binding rate, rapid equilibrium dialysis, human plasma; format: in vitro ADME; conditions: 10 µM, 37°C, 4 h
Experimental: as §5, §6, §7, §8

[6] = PAMPA, incubation 18,000 s, n = 2
Experimental: Verapamil and digoxin solutions, used as reference, prepared in the same manner as the test drugs. Tolbutamide dissolved with acetonitrile (200 ng/ml) was used as IS.
The resultant supernatants were determined by LC-MS/MS. The specific assay conditions are shown in Support Materials (Supplementary Table S2).

[7] = Kinetic solubility test in PBS; format: physicochemical; conditions: PBS (100 mM, pH 7.4)
Experimental: Internal standard (IS) solutions (propranolol and tolbutamide) were dissolved by acetonitrile (50 ng/ml propranolol + 200 ng/ml tolbutamide).
The sample solutions were analyzed using LC-MS/MS. All the samples (test samples and references) for detection were prepared in duplicate. The conditions for LC-MS/MS are shown in Support Materials (Supplementary Table S1).

[8] = Metabolic stability in rat liver microsomes; conditions: RLM with NADPH
Experimental: as §9, §10, §11

[9] = HLM with NADPH, 0.5 mg/ml microsomal protein, n = 2
[10] = 0.5 mg/ml microsomal protein, n = 2

Question: For Pinoresinol [PINL], which AUCINF_pred ([1]; IV 5 mg/kg, n = 3) is on record?
Answer: 825.0 ± 54.1 ng·h/mL

Question: And the AUClast ([1]; IV 5 mg/kg, n = 3)?
Answer: 805.0 ± 35.2 ng·h/mL

Question: What about the Cl_pred ([1]; IV 5 mg/kg, n = 3) of the same substance?
Answer: 101 ± 6.67 mL/min/kg

Question: What about the HL_Lambda_z ([1]; IV 5 mg/kg, n = 3) of the same substance?
Answer: 0.34 ± 0.35 h

Question: What about the MRTINF_pred ([1]; IV 5 mg/kg, n = 3) of the same substance?
Answer: 0.26 ± 0.18 h

Question: What about the Tmax ([1]; IV 5 mg/kg, n = 3) of the same substance?
Answer: 0.08 ± 0.00 h

Question: What about the Vz_pred ([1]; IV 5 mg/kg, n = 3) of the same substance?
Answer: 2.83 ± 2.81 L/kg

Question: And the Cmax ([1]; IV 5 mg/kg, n = 3, 5 mg/kg)?
Answer: 2,538.8 ng/ml and 2,538.77 ± 217.7 ng/ml

Question: And the Cmax ([1]; IV 5 mg/kg, ng/ml value expressed in molar units)?
Answer: 7.10 nM

Question: What about the AUCINF_pred ([1]; PO 40 mg/kg, n = 3) of the same substance?
Answer: 332.4 ± 192.1 ng·h/mL

Question: And the AUClast ([1]; PO 40 mg/kg, n = 3)?
Answer: 317.0 ± 192.0 ng·h/mL

Question: And the Cl_pred ([1]; PO 40 mg/kg, n = 3)?
Answer: 2518 ± 1400 mL/min/kg

Question: And the Cmax ([1]; PO 40 mg/kg, n = 3)?
Answer: 113.1 ± 35.3 ng/mL

Question: What about the MRTINF_pred ([1]; PO 40 mg/kg, n = 3) of the same substance?
Answer: 3.83 ± 1.66 h

Question: What about the Tmax ([1]; PO 40 mg/kg, n = 3) of the same substance?
Answer: 0.33 ± 0.14 h

Question: And the Vz_pred ([1]; PO 40 mg/kg, n = 3)?
Answer: 789.0 ± 608.7 L/kg

Question: What about the HL_Lambda_z ([1]; PO 40 mg/kg, n = 3, 40 mg/kg) of the same substance?
Answer: 3.57 h and 3.57 ± 2.87 h

Question: What about the Cmax ([1]; PO 40 mg/kg, ng/ml value expressed in molar units) of the same substance?
Answer: 0.317 nM

Question: What about the “average plasma protein binding rate” value [2] of the same substance?
Answer: 57.74%

Question: And the “cumulative urinary excretion, % of the dose” value ([3]; rat urine, for 30 h)?
Answer: 0.60%

Question: What about the “Cumulative Excretion Amount” value ([3]; rat urine, within 30 h, n = 3) of the same substance?
Answer: 5,993.1 ± 3,046.5 ng

Question: What about the “excretion amount in urine” value ([3]; 0–2 h, n = 3) of the same substance?
Answer: 5,440.0 ± 3,011.9 ng

Question: And the “excretion amount in urine” value ([3]; 2–4 h, n = 3)?
Answer: 201.7 ± 203.0 ng

Question: And the “excretion amount in urine” value ([3]; 4–8 h, n = 3)?
Answer: 351.4 ± 565.5 ng

Question: What about the CLint [4, 9] of the same substance?
Answer: 0.9 µL/min/mg

Question: What about the T1/2 [4, 9] of the same substance?
Answer: 1,509.5 min

Question: What about the t1/2 ([4]; HLM with NADPH, min value expressed in h) of the same substance?
Answer: 25.2 h

Question: And the remaining amount ([4]; HLM, incubation time 90 min)?
Answer: 90.1 ± 6.2%

Question: What about the “average plasma protein binding rate” value [5] of the same substance?
Answer: 89.03%

Question: What about the Peff [6] of the same substance?
Answer: 176.84 cm/s, ×10^–7

Question: And the kinetic solubility [7]?
Answer: 85.87 ± 3.84 µg/mL

Question: And the CLint [8, 10]?
Answer: 9.3 µL/min/mg

Question: What about the T1/2 [8, 10] of the same substance?
Answer: 2.495 h

Question: What about the t1/2 ([8]; min value expressed in h) of the same substance?
Answer: 2.5 h
